The conditions of the data set: single and multiple dose.

In the case of `CC(=O)Nc1ccc(/C=C/c2ccc(NC(=S)NC(C)C)cc2S(N)(=O)=O)c(S(N)(=O)=O)c1` [C-1523-1a, (E)-N-(4-(4-(3-isopropylthioureido)-2-sulfamoylstyryl)-3-sulfamoylphenyl)acetamide], the side effect result is given as “some B-cell reduction being the only (and predicted) side effect”.

On to `CC(=O)Nc1ccc(/C=C/c2ccc(NC(=S)NC(C)C)cc2S(=O)(=O)O)c(S(=O)(=O)O)c1` [C-1523, (E)-5-acetamido-2-(4-(3-isopropylthioureido)-2-sulfonatostyryl)benzenesulfonate], for which the side effect result is listed as “some B-cell reduction being the only (and predicted) side effect”.

(Values after patent US10927075B2, “Compositions and methods relating to the treatment of cancer, autoimmune disease, and neurodegenerative disease” (THE JACKSON LABORATORY, priority 2014, dated 2021).)
